Measurements as given in ChEMBL document CHEMBL6071206, “Development of BODIPY FL SNS 032 as a Versatile Probe for Constitutive Androstane Receptor and Multiple Kinases” (ACS Med Chem Lett, 2024).

By UniProt entry, the sequences of proteins in these tests, tags left out. Where a name states a change or a piece, a line headed by the entry shows the natural chain unless it says otherwise.
UniProt Q96RR4, whole entry, looked up: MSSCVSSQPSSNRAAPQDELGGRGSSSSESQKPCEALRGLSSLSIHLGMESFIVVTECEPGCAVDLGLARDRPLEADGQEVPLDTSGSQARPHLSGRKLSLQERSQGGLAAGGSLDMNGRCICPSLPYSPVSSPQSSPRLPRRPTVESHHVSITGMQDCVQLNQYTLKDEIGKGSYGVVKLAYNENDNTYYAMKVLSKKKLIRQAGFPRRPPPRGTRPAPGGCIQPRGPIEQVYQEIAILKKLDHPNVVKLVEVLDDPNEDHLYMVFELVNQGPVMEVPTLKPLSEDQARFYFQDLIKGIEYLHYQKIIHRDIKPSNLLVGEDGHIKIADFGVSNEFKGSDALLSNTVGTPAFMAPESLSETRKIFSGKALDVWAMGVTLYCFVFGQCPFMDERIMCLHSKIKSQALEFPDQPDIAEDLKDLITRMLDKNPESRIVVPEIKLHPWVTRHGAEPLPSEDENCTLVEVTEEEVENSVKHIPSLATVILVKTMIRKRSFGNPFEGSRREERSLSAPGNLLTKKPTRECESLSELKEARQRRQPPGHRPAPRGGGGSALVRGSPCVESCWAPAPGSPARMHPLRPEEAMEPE
UniProt P49840: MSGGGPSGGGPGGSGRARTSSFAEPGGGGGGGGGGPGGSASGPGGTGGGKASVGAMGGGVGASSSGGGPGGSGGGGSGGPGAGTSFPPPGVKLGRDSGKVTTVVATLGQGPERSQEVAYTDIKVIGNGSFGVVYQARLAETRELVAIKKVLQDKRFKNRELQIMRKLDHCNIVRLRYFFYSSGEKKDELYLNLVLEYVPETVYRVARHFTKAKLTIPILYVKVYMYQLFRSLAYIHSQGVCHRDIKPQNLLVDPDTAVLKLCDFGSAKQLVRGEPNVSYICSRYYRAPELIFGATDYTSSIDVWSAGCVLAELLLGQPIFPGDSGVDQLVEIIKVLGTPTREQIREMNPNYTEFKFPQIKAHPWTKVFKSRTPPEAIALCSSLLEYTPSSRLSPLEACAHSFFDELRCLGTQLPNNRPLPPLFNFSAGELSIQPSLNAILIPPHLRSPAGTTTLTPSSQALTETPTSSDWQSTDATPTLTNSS

Assays:
[1] = target: T1, Mitogen-activated protein kinase 15 (Homo sapiens) (UniProt Q8TD08); test: Binding affinity to Flag/His-tagged human MAPK15 assessed as fold change in FRET signal at 339.9 nM incubated for 90 mins by TR-FRET assay relative to control
T1 sequence (whole entry): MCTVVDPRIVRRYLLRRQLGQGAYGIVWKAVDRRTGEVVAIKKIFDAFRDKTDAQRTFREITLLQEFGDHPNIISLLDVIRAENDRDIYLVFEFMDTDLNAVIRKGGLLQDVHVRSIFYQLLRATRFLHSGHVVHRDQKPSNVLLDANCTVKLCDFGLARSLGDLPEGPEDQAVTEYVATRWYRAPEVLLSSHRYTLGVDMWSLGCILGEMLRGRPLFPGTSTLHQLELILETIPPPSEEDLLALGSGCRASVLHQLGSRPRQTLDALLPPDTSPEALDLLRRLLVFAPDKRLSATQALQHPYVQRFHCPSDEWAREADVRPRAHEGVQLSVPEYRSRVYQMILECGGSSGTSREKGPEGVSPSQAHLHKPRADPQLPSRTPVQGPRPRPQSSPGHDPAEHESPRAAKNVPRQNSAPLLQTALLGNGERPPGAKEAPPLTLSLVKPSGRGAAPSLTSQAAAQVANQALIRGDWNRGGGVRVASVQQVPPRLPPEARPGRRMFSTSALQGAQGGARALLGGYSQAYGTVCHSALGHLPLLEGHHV

[2] = target: T2, Calcium/calmodulin-dependent protein kinase kinase 2 (Homo sapiens, UniProt Q96RR4); test: Binding affinity to GST-tagged human CAMKK2 assessed as fold change in FRET signal at 125 nM incubated for 90 mins by TR-FRET assay relative to control
[3] = target: T3, Peripheral plasma membrane protein CASK (Homo sapiens) (UniProt O14936); test: Binding affinity to GST-tagged human CASK assessed as fold change in FRET signal at 551.5 nM incubated for 90 mins by TR-FRET assay relative to control
T3 sequence (whole entry): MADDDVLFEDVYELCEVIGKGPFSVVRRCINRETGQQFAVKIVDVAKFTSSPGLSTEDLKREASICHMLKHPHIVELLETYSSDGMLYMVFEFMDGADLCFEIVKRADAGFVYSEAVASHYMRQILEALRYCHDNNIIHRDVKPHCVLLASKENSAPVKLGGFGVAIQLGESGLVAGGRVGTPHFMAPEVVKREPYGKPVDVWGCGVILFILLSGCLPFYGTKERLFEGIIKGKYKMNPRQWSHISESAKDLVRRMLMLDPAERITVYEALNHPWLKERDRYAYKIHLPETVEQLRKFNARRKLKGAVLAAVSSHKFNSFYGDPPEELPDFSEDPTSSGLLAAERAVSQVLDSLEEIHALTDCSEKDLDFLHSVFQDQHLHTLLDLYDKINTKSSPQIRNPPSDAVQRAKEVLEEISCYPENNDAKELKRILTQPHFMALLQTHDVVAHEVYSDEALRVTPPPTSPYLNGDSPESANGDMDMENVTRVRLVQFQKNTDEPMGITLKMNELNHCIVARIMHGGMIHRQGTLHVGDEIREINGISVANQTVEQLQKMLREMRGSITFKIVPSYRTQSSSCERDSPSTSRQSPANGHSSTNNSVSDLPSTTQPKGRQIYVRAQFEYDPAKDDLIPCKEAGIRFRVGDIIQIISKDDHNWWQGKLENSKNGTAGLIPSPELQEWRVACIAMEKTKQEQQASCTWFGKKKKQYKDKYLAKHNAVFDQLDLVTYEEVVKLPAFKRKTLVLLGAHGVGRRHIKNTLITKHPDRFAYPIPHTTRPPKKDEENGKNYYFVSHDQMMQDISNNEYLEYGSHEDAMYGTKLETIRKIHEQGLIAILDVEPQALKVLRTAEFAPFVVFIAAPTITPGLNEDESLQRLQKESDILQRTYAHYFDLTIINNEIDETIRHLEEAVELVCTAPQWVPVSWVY

[4] = target: T3, Peripheral plasma membrane protein CASK (Homo sapiens); test: Binding affinity to GST-tagged human CASK assessed as fold change in FRET signal at 125 nM incubated for 90 mins by TR-FRET assay relative to control
[5] = target: T2, Calcium/calmodulin-dependent protein kinase kinase 2; test: Binding affinity to GST-tagged human CAMKK2 assessed as fold change in FRET signal at 533.2 nM incubated for 90 mins by TR-FRET assay relative to control
[6] = target: T4, Glycogen synthase kinase-3 alpha (Homo sapiens, UniProt P49840); test: Binding affinity to GST-tagged human GSK3A assessed as fold change in FRET signal at 3.9 nM incubated for 90 mins by TR-FRET assay relative to control
[7] = target: T4, Glycogen synthase kinase-3 alpha; test: Binding affinity to GST-tagged human GSK3A assessed as fold change in FRET signal at 4.5 nM incubated for 90 mins by TR-FRET assay relative to control
[8] = target: T1, Mitogen-activated protein kinase 15 (Homo sapiens); test: Binding affinity to Flag/His-tagged human MAPK15 assessed as fold change in FRET signal at 125 nM incubated for 90 mins by TR-FRET assay relative to control

fold change (FC) [2]: 3
fold change (FC) [3]: 2.8
fold change (FC) [4]: 3.7
fold change (FC) [5]: 2.5
fold change (FC) [6]: 26.9
fold change (FC) [7]: 26.9
SMILES: Cc1cc(C)n2c1C=C1C=CC(CCC(=O)N3CCC(C(=O)Nc4ncc(SCc5ncc(C(C)(C)C)o5)s4)CC3)=[N+]1[B-]2(F)F
fold change (FC) [1]: 3.8
fold change (FC) [8]: 4.7
